The source of these data is patent US20230279020A9, “CARM1 INHIBITORS AND USES THEREOF” (Epizyme, Inc., priority 2013, published 2023).

The chains behind the UniProt entries cited, without tags or fusion partners. A line that says so, or that is headed by a name, gives the form on record, which may keep a tag or linker.
UniProt Q86X55, with tags, fused parts or gaps limits assumed: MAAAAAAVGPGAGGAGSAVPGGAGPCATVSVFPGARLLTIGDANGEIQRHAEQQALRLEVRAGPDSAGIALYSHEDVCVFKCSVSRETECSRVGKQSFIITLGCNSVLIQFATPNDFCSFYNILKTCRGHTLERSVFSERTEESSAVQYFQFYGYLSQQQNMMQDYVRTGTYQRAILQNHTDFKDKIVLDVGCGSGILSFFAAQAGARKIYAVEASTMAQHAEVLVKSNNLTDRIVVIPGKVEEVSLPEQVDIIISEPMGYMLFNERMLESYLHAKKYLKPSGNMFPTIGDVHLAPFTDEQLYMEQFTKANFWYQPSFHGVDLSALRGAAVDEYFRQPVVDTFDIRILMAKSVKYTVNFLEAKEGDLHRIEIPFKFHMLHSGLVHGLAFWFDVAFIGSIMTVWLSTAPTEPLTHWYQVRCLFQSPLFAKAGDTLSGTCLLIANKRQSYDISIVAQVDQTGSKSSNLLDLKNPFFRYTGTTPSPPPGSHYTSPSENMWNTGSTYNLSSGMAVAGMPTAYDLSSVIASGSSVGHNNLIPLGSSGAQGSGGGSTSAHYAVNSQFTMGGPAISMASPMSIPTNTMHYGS

For test [1], the system named is asymmetric di-methyl PABP1 in RKO cells. As to the kind of experiment: RKO methylation assay, In Cell Western (ICW) for asymmetric di-methyl PABP1. The settings on record: read-out: Cellular IC50; Cellular potencies; PABP1me2a ICW.
The target in a further test is Human CARM1 (PRMT4) (Homo sapiens (Human), UniProt Q86X55). Description: CARM1 enzyme assay on peptide substrate (3H-SAM Flashplate). The settings on record: read-out: Biochem IC50; Biochemical potencies, classification codes.

SMILES strings stand for the structures. pIC50: −log10 of the molar value.

For the compound `CNC[C@@H](O)COc1ccc(Cl)c(-c2nc(-c3c(C)noc3C)c(F)c(C3Cc4cnn(C)c4C3)n2)c1` (some centres unmarked), in test [1], the pIC50 was > 5.30.
Consider `CNCC(O)COc1cccc(-c2nc(-c3c(C)noc3C)cc(N3CCN(CC(F)F)[C@@H](C)C3)n2)c1` (some centres unmarked), for which the pIC50 at Human CARM1 (PRMT4) is > 7.00; in test [1], > 5.30.
For `CNCC(O)COc1cccc(-c2nc(NCCCN3CCCC3=O)cc(-c3c(C)noc3C)n2)c1` (centres unmarked), the pIC50 at Human CARM1 (PRMT4) was > 7.00; in test [1], 4.70 to 5.00.

The term pIC50 denotes the IC50 on a negative log10 scale, so that one unit is a factor of ten.
